Columns and labels:
Sprague Dawley rats [1] = experiment: Fentanyl dose-response on hotplate and oximeter in non-immunized rats, Experiment 3; details: naloxone 0.1 mg/kg s.c. after final fentanyl dose
Sprague Dawley rats [2] = experiment: Hotplate and oximeter after cumulative s.c. fentanyl in immunized rats, Experiment 4; details: naloxone 0.1 mg/kg s.c.

C=CCN1CC[C@]23c4c5ccc(O)c4O[C@H]2C(=O)CC[C@@]3(O)[C@H]1C5
reversal of fentanyl-induced % SaO2 decrease (Sprague Dawley rats [1]): reversed % SaO2 levels to baseline values
reversal of fentanyl-induced heart rate decrease (Sprague Dawley rats [1]): did not reverse BPM back to baseline
reversal of fentanyl-induced hotplate latency (Sprague Dawley rats [1]): returned latencies to respond on the hotplate back to baseline levels
naloxone reversal of fentanyl-induced % SaO2 (Sprague Dawley rats [2]; F-sKLH vaccinated group (not in controls)): completely reversed
naloxone reversal of fentanyl-induced bradycardia (Sprague Dawley rats [2]; both groups): completely reversed

Source: patent US20220409722A1, “FENTANYL HAPTEN, FENTANYL HAPTEN-CONJUGATES, AND METHODS FOR MAKING AND USING” (published 2022)
